FGF22 binding: shifts melting point of recombinant human FGF22; activity (Tm shift, normalised), % at 9.99 µM; hit rate 1.5% among 340,000; recombinant FGF22 thermal shift, SYPRO orange fluorescence; percent of sucrose octasulfate shift, DMSO zero; Q9HCT0;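 active = mean Tm shift, scaled 0 neutral to 100 positive control, at about 1.3% or above, every replicate too, limit read from the data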
SIRT5 block: sirtuin-5 (human) deacylase inhibition. Q9NXA8. Purified SirT5, succinyl-peptide AMC, trypsin-coupled fluorescence. inhibition, % at 15 µM. hit rate 1.1% among 330,000. AID 652115; in the data active = inhibition above about 15%
Yeast UUG start: modulators of start codon recognition fidelity in yeast | S. cerevisiae UUG-firefly luciferase reporter, luminescence/redox ratio | activity score, % at 18.7 µM | 350,000 tested, 0.13% active;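 active = replicate mean at a twofold rise or more, about +100% in these data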;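 also: firefly luciferase made from a UUG start codon reports start codon fidelity; reporter light over untreated wells divided by growth signal over untreated wells; some hits fall short of that in this replicate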
ERp5 inh: inhibitors of human ERp5 | hit rate 0.05% among 350,000 | ERp5 insulin aggregation, absorbance 650 nm, 90 min | inhibition, % at 9.99 µM;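 active = mean replicate inhibition above about 25%, with every replicate also reaching it, limit read from the data, passing the limit was not always enough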
PDI inh: PDI (human) enzyme inhibition. AID 588391. PDI insulin aggregation turbidity, A650, 90 min. P07237. inhibition, % at 10 µM. hit rate 0.052% among 350,000;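 active = mean inhibition across replicates of 30% or more, whatever share of single replicates reach that level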
S100A4 MyoIIA: inhibitors of human S100A4 binding to myosin IIA peptide; inhibition, % at 10.7 µM; S100A4/TAMRA-MyoIIA peptide fluorescence polarization; hit rate 0.14% among 360,000; P26447;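 active = mean inhibition of at least 70% across replicates, with every replicate also reaching that level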
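Assay system: human S100A4 monomer with TAMRA-labelled myosin IIA peptide / Buffer or medium: Calcium-containing HEPES buffer, pH 7.2 / Reagent: TAMRA-labelled myosin IIA heavy-chain peptide probe, 5 nM / Compound: one dose per compound / Timing: polarization read 5 min after assay mix addition, stable 5–60 min / Benchmarks: neutral control DMSO, positive control TFP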
The depositor's hits bear a star; . = not tested or not shown. In the library only some 2.2% were active in any assay of this set; here they are far more common.

Molecule | ERp5 inh | SIRT5 block | PDI inh | S100A4 MyoIIA | FGF22 binding | Yeast UUG start
COc1ccc(S(=O)(=O)Nc2ccc3c(c2)C(=O)N([C@@H](C)CO)C[C@H](C)[C@@H](CN(C)C(=O)Nc2ccc(F)cc2)OCCCC[C@@H](C)O3)cc1 | 0 | 16* | . | -24 | -1 | -9
COc1ccc(NC(=O)N(C)C[C@H]2OCCCC[C@@H](C)Oc3ccc(NS(=O)(=O)c4ccc(Cl)cc4)cc3C(=O)N([C@H](C)CO)C[C@H]2C)cc1 | -1 | 4 | . | 2 | 0 | -2
Cc1ccc(S(=O)(=O)Nc2ccc3c(c2)C(=O)N([C@@H](C)CO)C[C@@H](C)[C@@H](CN(C)C(=O)Nc2ccc(F)cc2)OCCCC[C@H](C)O3)cc1 | -2 | 4 | . | 17 | -1 | 0
COc1ccc(S(=O)(=O)Nc2ccc3c(c2)C(=O)N([C@@H](C)CO)C[C@@H](C)[C@H](CN(C)C(=O)Nc2ccccc2)OCCCC[C@@H](C)O3)cc1 | 13 | -1 | . | 103* | 0 | 15
COc1ccc(S(=O)(=O)Nc2ccc3c(c2)C(=O)N([C@@H](C)CO)C[C@@H](C)[C@H](CN(C)C(=O)Nc2ccc(F)cc2)OCCCC[C@@H](C)O3)cc1 | -3 | 8 | . | -19 | 18* | -7
COc1ccc(S(=O)(=O)Nc2ccc3c(c2)C(=O)N([C@@H](C)CO)C[C@@H](C)[C@@H](CN(C)C(=O)Nc2ccc(F)cc2)OCCCC[C@@H](C)O3)cc1 | -8 | 18* | . | -6 | 0 | -3
COc1cccc(Cn2cnc(-c3ccccc3OC)c2C2CC2)c1 | -3 | . | . | -4 | 43* | .
C/C=C/c1ccc2c(c1)O[C@@H](CN(C)S(=O)(=O)c1ccc(F)cc1)[C@@H](C)CN([C@@H](C)CO)S2(=O)=O | -1 | 6 | . | -2 | 0 | .
C[C@H](CO)N1C[C@H](C)[C@@H](CN(C)C(=O)c2ccccn2)Oc2ncc(-c3ccccc3F)cc2C1=O | 2 | 0 | . | 25 | 0 | 5
CCN(CC)C(=O)COc1c(-c2ccco2)oc2ccccc2c1=O | 4 | -3 | -10 | 0 | 0 | -9
CCN(CC)C(=O)COc1ccc2oc(-c3ccco3)cc(=O)c2c1 | -1 | -26 | -34 | -1 | 44* | .
Cc1ccc(C(=O)COC(=O)CN2C(=O)C3C4CC(C(Br)C4Br)C3C2=O)cc1 (stereo not drawn) | 0 | 102* | 6 | -3 | 0 | -6
COc1ccc2c(Cl)c(C(=O)NN3CCN(C)CC3)sc2c1 | 3 | -4 | -4 | -4 | 44* | 0
C[C@H](CO)N1C[C@H](C)[C@@H](CN(C)S(=O)(=O)c2ccc(F)cc2)Oc2cc(-c3cccc(F)c3)ccc2S1(=O)=O | 10 | 17* | . | 17 | 0 | -16
COc1ccccc1-c1ccc2c(c1)O[C@H](CN(C)S(=O)(=O)c1ccc(F)cc1)[C@@H](C)CN([C@@H](C)CO)S2(=O)=O | 0 | 23* | . | 0 | 0 | .
COc1ccccc1-c1ccc2c(c1)O[C@H](CN(C)S(=O)(=O)c1ccc(F)cc1)[C@H](C)CN([C@H](C)CO)S2(=O)=O | 8 | 26* | . | -4 | 0 | .
COc1ccccc1-c1ccc2c(c1)O[C@@H](CN(C)S(=O)(=O)c1ccc(F)cc1)[C@H](C)CN([C@@H](C)CO)S2(=O)=O | -1 | 11 | . | -22 | 0 | .
COc1ccccc1-c1ccc2c(c1)O[C@@H](CN(C)S(=O)(=O)c1ccc(C)cc1)[C@H](C)CN([C@H](C)CO)S2(=O)=O | -5 | 1 | . | 15 | 0 | -8
C[C@@H]1CN([C@H](C)CO)C(=O)c2cc(NC(=O)C3CCCCC3)ccc2O[C@H]1CN(C)Cc1ccccc1 | 0 | 8 | . | 37 | 0 | 16
CCC(=O)Nc1ccc(Cl)c(NC(=S)NC(=O)COc2ccccc2)c1 | 2 | 0 | 2 | -6 | 44* | .
CCCC(=O)Nc1ccc(Cl)c(NC(=S)NC(=O)c2ccco2)c1 | 2 | . | 7 | -1 | 1.5* | .
CCCC(=O)Nc1ccc(Cl)c(NC(=O)c2ccco2)c1 | . | . | -2 | . | . | -4
CCN1[C@@H]2c3ccc(C4=CCCC4)c(=O)n3C[C@@H]2[C@@H](CO)[C@@H]1C(=O)NCCCN(C)C | 6 | -7 | . | 9 | . | .
O=C(NCC(c1ccco1)N1CCN(c2ccccc2F)CC1)C(=O)NC1CCCCC1 (stereo not drawn) | 1 | 2 | 9 | -2 | 0 | -15
O=C(COc1ccccc1)NCC(c1ccco1)N1CCN(c2ccc(F)cc2)CC1 (stereo not drawn) | 3 | 19* | -2 | 7 | 0 | -8
O=C(COc1ccccc1)NCC(c1ccco1)N1CCN(c2ccccc2F)CC1 (stereo not drawn) | -6 | -4 | 6 | 17 | 0 | 5
O=C(NCC(c1ccco1)N1CCN(c2ccccc2F)CC1)C1CCCCC1 (stereo not drawn) | -5 | 20* | 6 | 8 | 0 | -9
Cc1ccc(NC(=O)n2ccc(-c3ccc(-n4ccnc4)cc3)n2)cc1 | 2 | 17* | 6 | -5 | 0 | .
CN(C)CCCNC(=O)[C@@H]1[C@@H](CO)[C@@H]2Cn3c(ccc(-c4ccccc4)c3=O)[C@@H]2N1C | 1 | -1 | . | 10 | 0 | .
COC(=O)c1ccc2nc(-c3ccc(C)cc3)c(Cc3ccccc3)n2c1 | -16 | 24* | . | -9 | 0 | .
COC(=O)c1ccc2nc(-c3ccccc3)c(Cc3ccc(C)cc3)n2c1 | 8 | -6 | . | -6 | -1 | .
COc1ccc2c3c(n(C)c2c1)[C@H](CO)N(Cc1ccccc1)CC31CCN(S(=O)(=O)c2ccc(C)cc2)CC1 | -1 | 5 | . | -5 | -1 | .

Brought forward from above: 2 entries; new compounds follow.
Molecule | ERp5 inh | SIRT5 block | PDI inh | S100A4 MyoIIA | FGF22 binding | Yeast UUG start
COC(=O)c1ccc2nc(-c3ccccc3)c(Cc3ccc(C)cc3)n2c1 | 8 | -6 | . | -6 | -1 | .
COc1ccc2c3c(n(C)c2c1)[C@H](CO)N(Cc1ccccc1)CC31CCN(S(=O)(=O)c2ccc(C)cc2)CC1 | -1 | 5 | . | -5 | -1 | .
Cc1nnc(NC(=O)c2cc3ccccc3o2)s1 | 2 | 4 | 9 | 3 | 0 | -13
Cc1cnc(NC(=O)c2cc3ccccc3o2)s1 | 1 | 112* | -10 | 2 | 0 | .
O=C1CN(S(=O)(=O)Cc2ccccc2)C[C@H]2[C@@H](c3ccc(C#Cc4cccnc4)cc3)[C@@H](CO)N12 | 2 | 2 | . | 7 | . | .
C=CCn1c(=O)c(C(C)=O)cn(N(C)c2ncc(C(F)(F)F)cc2Cl)c1=O | 8 | 5 | -2 | 2 | 43* | .
Cn1cc(CC(=O)NCc2ccc(F)cc2)c2ccccc21 | 1 | 2 | 5 | -3 | 0 | -24
CCN(CC)C(=O)Cc1cn(C)c2ccccc12 | 1 | 1 | -3 | 4 | 43* | -7
C[C@@H]1CN([C@H](C)CO)C(=O)c2cc(NC(=O)Nc3ccc4c(c3)OCO4)ccc2O[C@@H]1CN(C)S(=O)(=O)c1ccccc1 | -3 | 0 | . | 2 | 0 | -3
CCC(=O)N1[C@H](CO)[C@@H](c2ccccc2)C12CN(CCC(F)(F)F)C2 | -6 | 15* | . | 3 | 0 | .
COc1ccc(CCNC(=O)c2n[nH]c(=O)c3ccccc23)cc1 | . | . | -1 | . | . | -2

Two compounds picked at random from those above:
Molecule | ERp5 inh | SIRT5 block | PDI inh | S100A4 MyoIIA | FGF22 binding | Yeast UUG start
Cc1cnc(NC(=O)c2cc3ccccc3o2)s1 | 1 | 112* | -10 | 2 | 0 | .
CCC(=O)N1[C@H](CO)[C@@H](c2ccccc2)C12CN(CCC(F)(F)F)C2 | -6 | 15* | . | 3 | 0 | .

Screening results from PubChem.
